For the experiment, the target named is T1, recombinant human RAGE/Fc chimera (R&D Systems cat. No. 1145-RG) (human, UniProt Q15109 23-344).
T1 construct: Disulfide-linked homodimer expressed in NS0 cells, glycosylated and amine-coupled to a CM5 chip; also called rhRAGE-Fc; immobilized RAGE; not shown: peptide linker between RAGE and Fc; Fc region of human IgG1
The experiment can be described thus: SPR (Biacore), 200 nM protein over amine-coupled RAGE/Fc, 1 mM CaCl2 and 10 µM ZnCl2. The procedure:
Binding analysis was performed using the “surface plasmon resonance” (SPR) technology with a Biacore 3000™ system. This technology allows analysis of an interaction between proteins and small molecules in a real-time and label-free manner. A protein or low-molecular weight compound is injected over a surface (a CM5 sensor chip) with a covalently coupled ligand and the signal produced, expressed as resonance units (RU), is directly proportional to the number and mass of the molecule interacting with the ligand on the surface. Immobilization, regeneration scouting, surface performance tests and binding studies were conducted basically according to the instructions by the manufacturer. Kinetic evaluation of binding data was carried using the BIAevaluation Software Version 3.2 (Biacore AB). Optimization of conditions for immobilization and binding analysis is carried out for each interaction to be studied. […]
Recombinant human RAGE was obtained from R&D Systems (cat. No. 1145-RG) as a fusion protein of the extracellular domain of RAGE, comprising a.a. […] The chimeric protein was expressed in the mouse myleoma cell line NSO as a disulfide-linked homo-dimeric protein with a calculated molecular mass of 61 kDa. […]
For orientation: SPR reads the build-up and loss of mass on a sensor chip optically.

Protein sequences, listed by entry. Tags and fused reporters are not part of them. Residues count along the entry.
UniProt Q15109, 23-344, stated change not applied: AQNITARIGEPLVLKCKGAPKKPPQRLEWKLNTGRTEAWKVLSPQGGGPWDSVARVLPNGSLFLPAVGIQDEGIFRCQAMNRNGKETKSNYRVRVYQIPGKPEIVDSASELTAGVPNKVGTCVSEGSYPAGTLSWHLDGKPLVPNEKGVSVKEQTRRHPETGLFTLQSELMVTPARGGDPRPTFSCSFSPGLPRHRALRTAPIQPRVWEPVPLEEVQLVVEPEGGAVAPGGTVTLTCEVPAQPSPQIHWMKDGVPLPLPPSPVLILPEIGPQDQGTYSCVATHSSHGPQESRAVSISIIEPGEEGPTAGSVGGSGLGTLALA

B1: hS100AB (other)
alpha: GSELETAMETLINVFHAHSGKEGDKYKLSKKELKELLQTELSGFLDAQKDVDAVDKVMKELDENGDGEVDFQEYVVLVAALTVACNNFFWENS
beta: SELEKAMVALIDVFHQYSGREGDKHKLKKSELKELINNELSHFLEEIKEQEVVDKVMETLDNDGDGECDFQEFMAFVAMVTTACHEFFEHE
B1: the binding result is reported as “no binding (tested: 200 nM)”.
